Laboratory results as given in patent US10351596B2, “γ-AA-peptide STAT3/DNA inhibitors and methods of use” (H. Lee Moffitt Cancer Center and Research Institute, Inc., priority 2014, dated 2019).

Sequences of proteins named here, by UniProt entry; tags and fusion partners are left off. Residues count along the entry.
UniProt P40763, 2-770 limits assumed: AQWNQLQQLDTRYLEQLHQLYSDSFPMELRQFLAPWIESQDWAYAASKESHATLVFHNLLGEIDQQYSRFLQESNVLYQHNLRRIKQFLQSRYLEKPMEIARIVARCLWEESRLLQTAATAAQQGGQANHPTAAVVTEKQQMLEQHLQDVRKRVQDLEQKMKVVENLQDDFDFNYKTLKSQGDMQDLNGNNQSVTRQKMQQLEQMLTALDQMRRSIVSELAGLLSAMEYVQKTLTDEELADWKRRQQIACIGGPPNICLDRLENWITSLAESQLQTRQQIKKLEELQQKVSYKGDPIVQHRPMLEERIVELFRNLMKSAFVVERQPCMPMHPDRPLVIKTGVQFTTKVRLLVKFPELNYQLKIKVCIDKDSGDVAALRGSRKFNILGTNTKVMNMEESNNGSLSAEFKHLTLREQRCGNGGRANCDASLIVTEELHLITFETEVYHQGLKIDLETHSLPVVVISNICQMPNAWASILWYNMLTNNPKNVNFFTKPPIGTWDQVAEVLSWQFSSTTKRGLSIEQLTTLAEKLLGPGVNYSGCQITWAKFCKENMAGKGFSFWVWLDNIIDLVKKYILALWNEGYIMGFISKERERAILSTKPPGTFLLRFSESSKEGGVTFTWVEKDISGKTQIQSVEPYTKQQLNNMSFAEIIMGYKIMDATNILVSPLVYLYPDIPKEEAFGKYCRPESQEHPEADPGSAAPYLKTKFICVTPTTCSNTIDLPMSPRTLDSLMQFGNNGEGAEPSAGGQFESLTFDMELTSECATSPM

Molecular target: T1, STAT3-DNA binding (Homo sapiens, UniProt P40763)
T1 construct: Nuclear extracts from MDA-MB-468 human breast cancer cells; endogenous in cells; host or cells: MDA-MB-468 human breast cancer cells (nuclear extract)
Assay: STAT3-DNA binding filter plate assay with nuclear extract from MDA-MB-468 cells
Type: biochemical
Conditions: MDA-MB-468 nuclear extract
Description: Nuclear extracts from MDA-MB-468 human breast cancer cells were incubated with a biotin-conjugated STAT3 probe and tested for STAT3 DNA binding using a filter plate assay. Briefly, nuclear extract preparation was carried out as previously described (Zhang, et al., Orally bioavailable small-molecule inhibitor of transcription factor Stat3 regresses human breast and lung cancer xenografts. Proceedings of the National Academy of Sciences of the United States of America 2012, 109, 9623-9628). The STAT3-DNA binding filter plate assay was performed following the manual of the filter plate assay kit (Signosis, Sunnyvale, Calif.), as described previously (Zhang, et al., A Novel Inhibitor of STAT3 Homodimerization Selectively Suppresses STAT3 Activity and Malignant Transformation. Cancer Research 2013, 73, 1922-1933). The TF Binding buffer was mixed with the STAT3 probe (biotin labeled STAT3 DNA binding sequence) and nuclear extract and incubated at 16° C. for 30 minutes to form the STAT3-DNA complex. […] Eluted probes were then hybridized into 96-well hybridization plates for quantitative analysis. The captured STAT3 probe was detected by conjugation with streptavidin-HRP. The chemiluminescence of each well was read using 2104 EnVisionR Multilabel Reader (Perkin Elmer,) within 5 minutes after mixture with substrates. […]

GpYLPQTV (phosphotyrosine; listed as Homo sapiens)
inhibition of STAT3-DNA binding (at 10 μM): 40% | inhibition of STAT3-DNA binding (at 100 μM): 60%
